Measurements published in PubChem BioAssay AID488969 (Vanderbilt High Throughput Screening Facility, 2010).
This is a selection; strong and weak results do not stand in their true shares.

Chains of the proteins cited; added tags and fusions are not shown.
UniProt P70579, whole entry: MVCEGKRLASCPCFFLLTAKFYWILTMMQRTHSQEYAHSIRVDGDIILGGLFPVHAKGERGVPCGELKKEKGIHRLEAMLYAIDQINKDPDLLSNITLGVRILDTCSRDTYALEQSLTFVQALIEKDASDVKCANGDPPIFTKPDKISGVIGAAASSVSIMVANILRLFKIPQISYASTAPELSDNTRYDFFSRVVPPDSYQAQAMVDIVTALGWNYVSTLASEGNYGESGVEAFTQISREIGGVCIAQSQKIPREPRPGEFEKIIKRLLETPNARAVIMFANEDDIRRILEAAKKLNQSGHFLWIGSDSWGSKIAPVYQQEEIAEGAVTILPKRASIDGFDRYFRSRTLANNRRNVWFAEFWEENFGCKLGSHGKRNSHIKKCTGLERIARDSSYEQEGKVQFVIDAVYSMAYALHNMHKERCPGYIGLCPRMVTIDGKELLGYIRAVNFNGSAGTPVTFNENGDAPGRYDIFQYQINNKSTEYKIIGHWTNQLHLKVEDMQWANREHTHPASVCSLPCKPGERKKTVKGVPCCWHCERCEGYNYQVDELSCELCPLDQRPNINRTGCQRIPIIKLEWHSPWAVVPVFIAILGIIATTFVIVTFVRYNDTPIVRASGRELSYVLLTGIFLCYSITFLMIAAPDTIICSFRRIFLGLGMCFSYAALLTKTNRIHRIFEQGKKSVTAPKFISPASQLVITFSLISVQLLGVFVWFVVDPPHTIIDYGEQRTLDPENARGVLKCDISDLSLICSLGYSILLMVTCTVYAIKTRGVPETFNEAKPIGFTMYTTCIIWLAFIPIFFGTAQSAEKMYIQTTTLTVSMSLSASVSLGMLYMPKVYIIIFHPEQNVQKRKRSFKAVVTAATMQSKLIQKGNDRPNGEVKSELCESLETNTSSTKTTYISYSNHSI

Each compound was assayed against Metabotropic glutamate receptor 8 (Rattus norvegicus) (UniProt P70579) (assay: mGluR8 Gi/Go-coupled signaling modulation – cell-based, rat, thallium flux, HTS, primary screen (AID 488969)). Conditions: HEK293 rat mGluR8, GIRK (G protein-gated inwardly rectifying potassium channel) thallium flux, FluoZin2; at 10 µM; stronger effect = higher value; submaximal glutamate (EC20) added with thallium.
In the case of `CCOC(=O)c1ccc(NP(C)(=O)Oc2ccc(OC)cc2)cc1` (configuration not stated), the z-score is reported as -0.108. With `CP(=O)(Nc1ccccn1)Oc1ccc(Cl)cc1` (configuration not stated) the z-score was -0.189. `Cc1cccc(C)c1OP(C)(=O)Nc1ccc(SC(F)(F)F)cc1` (configuration not stated) gave a z-score of 0.968. For `Cc1cc(C)cc(OP(C)(=O)Nc2ccc(SC(F)(F)F)cc2)c1` (configuration not stated), the z-score was -0.0619. Compound `CP(=O)(NC(=O)Nc1ccccc1)Oc1ccccc1` (configuration not stated) has a z-score of 0.339. `CP(=S)(Nn1cnnc1)Oc1ccccc1` (configuration not stated) gave a z-score of -0.226. `COc1ccc(OP(C)(=O)Nc2cccc(F)c2)cc1` (configuration not stated) was tested, and the z-score was -0.518. `CC(C)(C)c1ccc(OP(C)(=O)Nc2ccc(SC(F)(F)F)cc2)cc1` (configuration not stated) was tested, and the z-score was -0.327. `Cc1ccc(C)c(NP(C)(=O)Oc2ccccc2)c1` (configuration not stated) was tested, and the z-score was -0.0106. Compound `Cc1cc(C)cc(OP(C)(=O)Nc2ccccn2)c1` (configuration not stated) has a z-score of 0.226. With `CCOC(=O)c1ccc(NP(C)(=O)Oc2cc(C)cc(C)c2)cc1` (configuration not stated) the z-score was -0.356. For `Cc1cc(C)cc(OP(C)(=O)Nc2ccc(C)cc2C)c1` (configuration not stated), the z-score was 0.074. `CC1=NCCc2c1[nH]c1ccccc21.O=[N+]([O-])c1cc([N+](=O)[O-])c(O)c([N+](=O)[O-])c1` was tested, and the z-score was -0.356. Work on `COc1ccccc1OP(C)(=O)Nc1c(C)cccc1C` (configuration not stated) yielded a z-score of -0.15. For `CN1CCCCC1COC(=O)C1(O)c2ccccc2CCc2ccccc21` (configuration not stated), the z-score was 0.653. In the case of `CP(=O)(Nc1ccc2c(c1)OCCO2)Oc1ccccc1` (configuration not stated), the z-score is reported as 0.864. Work on `CCOP(C)(=S)SCC(=O)NC(C)(CC)C(=O)O` (configuration not stated) yielded a z-score of 0.106. `COc1ccc(OP(C)(=O)Nc2cccc(Br)c2)cc1` (configuration not stated) showed a z-score of 0.0233. `CN(C)CCOC(=O)C(O)(c1ccccc1)C1CCCCC1` (configuration not stated) was tested, and the z-score was -0.0349. In the case of `CCN(CC)CCCOC(=O)C(O)(c1ccccc1)C1CCCCC1` (configuration not stated), the z-score is reported as 0.464. In the case of `CP(=O)(Nc1ccccc1)Oc1ccc(F)cc1` (configuration not stated), the z-score is reported as 0.00465. Work on `Cc1c(NP(C)(=O)Oc2ccc(C(C)C)cc2)c(=O)n(-c2ccccc2)n1C` (configuration not stated) yielded a z-score of 0.103. For `COc1ccccc1OP(C)(=O)Nc1ccc(C)cc1C` (configuration not stated), the z-score was -0.243. With `CP(=O)(Nc1ccccn1)Oc1ccccc1` (configuration not stated) the z-score was -0.0546. With `CCc1ccc(OP(C)(=O)O)cc1` the z-score was -0.022. Work on `COc1ccc(OP(C)(=O)Nc2ccccn2)cc1` (configuration not stated) yielded a z-score of -0.418. For `CN(C)CCOC(=O)C(O)(c1ccccc1)C1CCCC1` (configuration not stated), the z-score was -0.0717. With `Cc1nc2ccc3ccccc3c2o1.O=[N+]([O-])c1cc([N+](=O)[O-])c(O)c([N+](=O)[O-])c1` the z-score was 0.66. For `COc1ccccc1OP(C)(=O)Nc1ccc(C)c(C)c1` (configuration not stated), the z-score was -0.488. With `COc1ccc(OP(C)(=O)Nc2ccccc2Br)cc1` (configuration not stated) the z-score was -0.615. Work on `CP(=O)(OC12CC3CC(CC(C3)C1)C2)OC12CC3CC(CC(C3)C1)C2` yielded a z-score of -0.339. With `CC(C)(C)c1ccc(OP(C)(=O)O)cc1` the z-score was -0.103. In the case of `CP(=O)(Nc1ccc(Cl)cc1)Oc1ccc(F)cc1` (configuration not stated), the z-score is reported as -0.325. `COc1ccc(OP(C)(=O)Nc2ccc(Br)cc2)cc1` (configuration not stated) gave a z-score of 0.238. `CCN(CC)CC(O)COC(=O)C(O)(c1ccccc1)C1CCCCC1` (configuration not stated) showed a z-score of -0.214. For `COc1ccccc1OP(C)(=O)Nc1c(C)n(C)n(-c2ccccc2)c1=O` (configuration not stated), the z-score was 0.221. With `CP(=O)(Oc1ccccc1)N1CCOC1=O` (configuration not stated) the z-score was -0.0795.
